By UniProt entry, the sequences of proteins in these tests, tags left out.
UniProt Q92905, whole entry: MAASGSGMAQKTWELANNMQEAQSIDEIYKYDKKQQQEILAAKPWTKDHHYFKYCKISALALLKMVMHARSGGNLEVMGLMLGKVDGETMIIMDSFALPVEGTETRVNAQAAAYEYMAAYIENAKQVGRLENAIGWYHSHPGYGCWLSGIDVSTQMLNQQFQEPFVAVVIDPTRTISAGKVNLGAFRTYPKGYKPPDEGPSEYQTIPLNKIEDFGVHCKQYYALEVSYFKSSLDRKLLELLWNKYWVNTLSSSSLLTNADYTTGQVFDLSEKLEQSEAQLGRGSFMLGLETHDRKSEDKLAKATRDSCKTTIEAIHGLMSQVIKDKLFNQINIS

This is a selection; strong and weak results do not stand in their true shares. Calls of active or inactive are those of the source.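 How the source made its calls: active means pattern-corrected inhibition above about 35%, with an unprinted fluorescence ratio check between 0.5 and 1.5 (limit read from the data, passing the limit was not always enough); inactive means the rest.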
These molecules were tested against COP9 signalosome complex subunit 5 (Homo sapiens) (UniProt Q92905) (assay: CSN5 deneddylase inhibitors on cullin-RING ligase – biochemical, fluorescence polarization, uHTS, primary screen (AID 651999;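 further: 0% = enzyme with substrate and 100% = substrate without enzyme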)). Conditions: Purified CSN, SCF-Nedd8-OG deneddylation, at 12.5 µM, active compounds read high.
Summary of the method: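 Assay system: HEK293T-derived human Csn5 enzyme; quantity: 0.24 nM enzyme; medium: Tris/NaCl/DTT buffer, pH 7.5; also added: substrate SCFSkp2-Nedd8OG, 10 nM; doses: 12.5 µM compound; schedule: 90 min reaction at room temperature; signal: FP; read-out: % inhibition of substrate cleavage by Csn5; benchmarks: substrate-only high control, full reaction low control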
With `CCOc1ccc(C)cc1CN(CCCl)CCCl` the inhibition was inactive: 0.01%. In the case of `O=C(NCC1(N2CCCCC2)CCCCC1)c1ccco1`, the inhibition is reported as inactive: -4.39%. For `CN(C)c1ccc(C(=O)NCC2(N3CCCCC3)CCCCC2)cc1`, the inhibition was inactive: 3.52%. In the case of `Cn1c(=O)[nH]cc(N(CCCl)CCCl)c1=O`, the inhibition is reported as inactive: 6.93%. In the case of `Cc1ccccc1NC1(C#N)CCN(Cc2ccccc2)CC1`, the inhibition is reported as inactive: 0.01%. For `CCN1CCC(Nc2cccc(F)c2)CC1`, the inhibition was inactive: 0.59%. With `COc1ccc(C(c2nnnn2C2CCCCC2)N2CCC(n3c(=O)[nH]c4ccccc43)CC2)cc1` (stereo not drawn) the inhibition was inactive: -1.73%. In the case of `CC(C)(C)n1nnnc1C(c1ccnc2ccccc12)N1CCC(n2c(=O)[nH]c3ccccc32)CC1` (stereo not drawn), the inhibition is reported as inactive: -1.87%. With `Cc1ccc(C(=O)NCC2(N3CCCCC3)CCCCC2)o1` the inhibition was inactive: -1.59%. In the case of `Fc1ccccc1NC1CCN(Cc2ccccc2)CC1`, the inhibition is reported as inactive: 2.25%. For `Cc1ccc(NC2(C#N)CCN(Cc3ccccc3)CC2)cc1`, the inhibition was inactive: -3.75%. `COc1cccc(C(c2nnnn2C2CCCCC2)N2CCC(n3c(=O)[nH]c4ccccc43)CC2)c1OC` (stereo not drawn) was tested, and the inhibition was inactive: -1.9%. With `CC(=O)N(c1ccccc1)C1CCNCC1` the inhibition was inactive: 0%. With `CCC(c1nnnn1C1CCCCC1)N1CCC(n2c(=O)[nH]c3ccccc32)CC1` (stereo not drawn) the inhibition was inactive: 2.39%. `COc1cc(OC)cc(C(=O)NCC2(N3CCCCC3)CCCCC2)c1` was tested, and the inhibition was inactive: 2.05%. With `O=c1[nH]c2ccccc2n1C1CCN(C(c2ccnc3ccccc23)c2nnnn2C2CCCCC2)CC1` (stereo not drawn) the inhibition was inactive: -5.76%. In the case of `CN1CCC(Nc2ccc(Cl)cc2)CC1`, the inhibition is reported as inactive: -2.85%. `COc1cc(OC)cc(C(=O)NCC2(N3CCOCC3)CCCCC2)c1` was tested, and the inhibition was inactive: -0.94%. In the case of `COc1cccc(C(c2nnnn2C2CCCC2)N2CCC(n3c(=O)[nH]c4ccccc43)CC2)c1OC` (stereo not drawn), the inhibition is reported as inactive: 2.92%. In the case of `COc1cccc(C(=O)N(c2cc(C)cc(C)c2)C2CCN(C(=O)OC(C)(C)C)CC2)c1`, the inhibition is reported as inactive: 3.96%. With `CCC(CO)(C(=O)OC1CN2CCC1CC2)c1ccccc1` (stereo not drawn) the inhibition was inactive: -0.2%. In the case of `CC(C)(C)OC(=O)N1CCC(Nc2ccccc2)CC1`, the inhibition is reported as inactive: 3.67%. In the case of `O=C(O)C1(Nc2ccccc2)CCN(Cc2ccccc2)CC1`, the inhibition is reported as inactive: 0.39%. In the case of `NN(c1ccccc1)C1CCN(CCc2ccccc2)CC1`, the inhibition is reported as inactive: 4.63%. For `O=c1[nH]c2ccccc2n1C1CCN(C(c2cc3ccccc3o2)c2nnnn2C2CCCC2)CC1` (stereo not drawn), the inhibition was inactive: 1.97%. With `CCCOc1ccc(C(=O)NCC2(N(C)C)CCCCC2)cc1` the inhibition was inactive: -0.96%. With `CCOc1ncccc1C(=O)NCC1(N2CCOCC2)CCCCC1` the inhibition was inactive: -3.71%. In the case of `CN1CCC(Nc2ccc(F)c(Cl)c2)CC1`, the inhibition is reported as inactive: -2.85%. In the case of `O=C(OC1CN2CCC1CC2)C1c2ccccc2C=Cc2ccccc21` (stereo not drawn), the inhibition is reported as inactive: -3.79%. In the case of `O=c1[nH]c2ccccc2n1C1CCN(C(c2cccs2)c2nnnn2C2CCCC2)CC1` (stereo not drawn), the inhibition is reported as inactive: 5.36%. `CCCCn1nnnc1C(c1cccc(OC)c1OC)N1CCC(n2c(=O)[nH]c3ccccc32)CC1` (stereo not drawn) was tested, and the inhibition was inactive: -0.48%. In the case of `CCOC(=O)N1CCC(Nc2ccc(C)cc2)CC1`, the inhibition is reported as inactive: 5.34%. With `COc1cccc(C(c2nnnn2C(C)(C)C)N2CCC(n3c(=O)[nH]c4ccccc43)CC2)c1OC` (stereo not drawn) the inhibition was inactive: -3.55%. For `N/C(=N\O)c1c(N)no[n+]1[O-]`, the inhibition was inactive: 3.34%. In the case of `O=c1[nH]c2ccccc2n1C1CCN(C(c2cccs2)c2nnnn2C2CCCCC2)CC1` (stereo not drawn), the inhibition is reported as inactive: 1.89%. `COc1ccc(C(=O)NCC2(N3CCOCC3)CCCCC2)cc1OC` was tested, and the inhibition was inactive: -0.43%. `O=c1[nH]c2ccccc2n1C1CCN(C(c2ccnc3ccccc23)c2nnnn2C2CCCC2)CC1` (stereo not drawn) was tested, and the inhibition was inactive: 4.84%. `CCCCn1nnnc1C(c1ccccc1)N1CCC(n2c(=O)[nH]c3ccccc32)CC1` (stereo not drawn) was tested, and the inhibition was inactive: -0.91%. In the case of `COc1cc(C(=O)NCC2(N3CCOCC3)CCCCC2)cc(OC)c1C`, the inhibition is reported as inactive: 0.7%. In the case of `O=C(NCC1(N2CCOCC2)CCCCC1)c1cc(Br)ccc1Cl`, the inhibition is reported as inactive: -3.85%. With `CC(C)(C)n1nnnc1C(c1cccc2ccccc12)N1CCC(n2c(=O)[nH]c3ccccc32)CC1` (stereo not drawn) the inhibition was inactive: 3.01%. In the case of `CN(C)C1(CNC(=O)c2cccc(C#N)c2)CCCCC1`, the inhibition is reported as inactive: 1.14%. For `c1ccc(CN2CCC(Nc3ccccc3)CC2)cc1`, the inhibition was inactive: -2.52%. For `Cc1cc(N(CCCl)CCCl)ccc1C=O`, the inhibition was inactive: 0.96%. `CCCN1CCC(Nc2cc(OC)cc(OC)c2)CC1` was tested, and the inhibition was inactive: -11.6%. For `O=c1[nH]c2ccccc2n1C1CCN(C(c2ccccc2)c2nnnn2C2CCCC2)CC1` (stereo not drawn), the inhibition was inactive: 2.1%. `N#Cc1ccc(C(=O)NCC2(N3CCCCC3)CCCCC2)cc1` was tested, and the inhibition was inactive: 2.07%. With `CC(C)(C)OC(=O)N1CCC(N(C(=O)c2ccccc2)c2ccc(Cl)cc2)CC1` the inhibition was inactive: 2.81%.

— PubChem BioAssay AID651999 (Sanford-Burnham Center for Chemical Genomics, 2013)
